Assay results: ChEMBL document CHEMBL1135203, “Benzodiazepine inhibitors of the MMPs and TACE” (Bioorg Med Chem Lett, 2002)

Molecular target: Collagenase 3 (Homo sapiens, UniProt P45452)

| SMILES | IC50 |
| --- | --- |
| O=C(NO)C1CN(C(=O)c2ccccc2)c2ccccc2CN1S(=O)(=O)c1ccc(Oc2ccc(Cl)cc2)cc1 (configuration not stated) | 2 nM |
| COCC(=O)N1CC(C(=O)NO)N(S(=O)(=O)c2ccc(Oc3ccc(Cl)cc3)cc2)Cc2ccccc21 (configuration not stated) | 2 nM |
